# Values of other authors in patent publication US9260430B2, “Use of TRPA1 antagonists to prevent or treat infections caused by biological-warfare agents” (dated 2016).
# Amino acid sequences for entries named in this document (tags omitted). Residues count along the entry.
# UniProt Q8NER1, whole entry: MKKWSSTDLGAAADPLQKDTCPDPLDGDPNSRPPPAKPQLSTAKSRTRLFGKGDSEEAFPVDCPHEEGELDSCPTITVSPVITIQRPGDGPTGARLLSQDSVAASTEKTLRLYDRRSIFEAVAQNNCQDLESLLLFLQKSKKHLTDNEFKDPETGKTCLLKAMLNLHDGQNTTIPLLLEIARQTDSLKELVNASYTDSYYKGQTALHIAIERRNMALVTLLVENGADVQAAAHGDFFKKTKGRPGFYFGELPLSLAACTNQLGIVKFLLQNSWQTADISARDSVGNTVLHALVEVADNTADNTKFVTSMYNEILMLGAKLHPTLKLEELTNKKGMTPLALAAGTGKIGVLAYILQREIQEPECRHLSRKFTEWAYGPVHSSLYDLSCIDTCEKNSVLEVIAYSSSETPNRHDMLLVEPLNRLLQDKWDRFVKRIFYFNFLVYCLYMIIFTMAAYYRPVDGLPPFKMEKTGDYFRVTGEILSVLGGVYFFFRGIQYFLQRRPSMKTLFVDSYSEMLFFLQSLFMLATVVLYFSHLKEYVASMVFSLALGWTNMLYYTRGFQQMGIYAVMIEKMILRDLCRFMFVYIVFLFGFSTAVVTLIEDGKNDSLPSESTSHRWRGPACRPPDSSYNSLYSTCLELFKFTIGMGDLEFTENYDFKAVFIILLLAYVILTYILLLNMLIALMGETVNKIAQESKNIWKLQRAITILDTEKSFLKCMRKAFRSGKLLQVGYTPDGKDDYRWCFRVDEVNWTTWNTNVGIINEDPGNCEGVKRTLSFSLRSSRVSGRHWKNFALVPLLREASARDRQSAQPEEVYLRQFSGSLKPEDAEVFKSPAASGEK
# UniProt Q6RI86, whole entry: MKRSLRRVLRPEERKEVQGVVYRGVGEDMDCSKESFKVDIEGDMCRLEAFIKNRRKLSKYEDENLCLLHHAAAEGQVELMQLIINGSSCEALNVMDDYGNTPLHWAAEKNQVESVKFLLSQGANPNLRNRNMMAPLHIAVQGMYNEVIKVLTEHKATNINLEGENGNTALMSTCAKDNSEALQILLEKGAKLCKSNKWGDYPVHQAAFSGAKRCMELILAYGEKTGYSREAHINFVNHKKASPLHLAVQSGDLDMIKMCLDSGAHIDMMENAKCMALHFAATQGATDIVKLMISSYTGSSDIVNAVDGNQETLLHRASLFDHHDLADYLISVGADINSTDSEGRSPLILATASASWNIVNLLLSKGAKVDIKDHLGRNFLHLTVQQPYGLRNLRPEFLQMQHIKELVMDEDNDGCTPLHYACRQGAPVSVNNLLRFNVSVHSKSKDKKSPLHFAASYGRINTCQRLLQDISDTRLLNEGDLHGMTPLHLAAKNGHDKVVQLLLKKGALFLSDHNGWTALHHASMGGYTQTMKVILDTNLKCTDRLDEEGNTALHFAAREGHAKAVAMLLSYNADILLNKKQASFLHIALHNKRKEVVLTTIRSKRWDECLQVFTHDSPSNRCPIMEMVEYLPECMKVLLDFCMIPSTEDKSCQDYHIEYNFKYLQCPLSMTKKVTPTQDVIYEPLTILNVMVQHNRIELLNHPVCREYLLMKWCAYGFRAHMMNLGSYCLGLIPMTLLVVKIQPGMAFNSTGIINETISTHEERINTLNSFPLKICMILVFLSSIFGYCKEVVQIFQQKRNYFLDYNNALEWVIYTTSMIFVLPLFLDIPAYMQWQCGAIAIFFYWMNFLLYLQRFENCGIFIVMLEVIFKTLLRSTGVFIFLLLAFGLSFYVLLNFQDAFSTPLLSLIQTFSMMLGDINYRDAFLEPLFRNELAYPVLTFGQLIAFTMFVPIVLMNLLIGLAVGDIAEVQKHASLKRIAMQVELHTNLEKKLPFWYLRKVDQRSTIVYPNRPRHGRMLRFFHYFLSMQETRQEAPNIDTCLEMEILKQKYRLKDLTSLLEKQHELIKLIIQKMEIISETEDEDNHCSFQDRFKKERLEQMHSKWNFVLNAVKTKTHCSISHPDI
# UniProt H0VJD1, 1-991: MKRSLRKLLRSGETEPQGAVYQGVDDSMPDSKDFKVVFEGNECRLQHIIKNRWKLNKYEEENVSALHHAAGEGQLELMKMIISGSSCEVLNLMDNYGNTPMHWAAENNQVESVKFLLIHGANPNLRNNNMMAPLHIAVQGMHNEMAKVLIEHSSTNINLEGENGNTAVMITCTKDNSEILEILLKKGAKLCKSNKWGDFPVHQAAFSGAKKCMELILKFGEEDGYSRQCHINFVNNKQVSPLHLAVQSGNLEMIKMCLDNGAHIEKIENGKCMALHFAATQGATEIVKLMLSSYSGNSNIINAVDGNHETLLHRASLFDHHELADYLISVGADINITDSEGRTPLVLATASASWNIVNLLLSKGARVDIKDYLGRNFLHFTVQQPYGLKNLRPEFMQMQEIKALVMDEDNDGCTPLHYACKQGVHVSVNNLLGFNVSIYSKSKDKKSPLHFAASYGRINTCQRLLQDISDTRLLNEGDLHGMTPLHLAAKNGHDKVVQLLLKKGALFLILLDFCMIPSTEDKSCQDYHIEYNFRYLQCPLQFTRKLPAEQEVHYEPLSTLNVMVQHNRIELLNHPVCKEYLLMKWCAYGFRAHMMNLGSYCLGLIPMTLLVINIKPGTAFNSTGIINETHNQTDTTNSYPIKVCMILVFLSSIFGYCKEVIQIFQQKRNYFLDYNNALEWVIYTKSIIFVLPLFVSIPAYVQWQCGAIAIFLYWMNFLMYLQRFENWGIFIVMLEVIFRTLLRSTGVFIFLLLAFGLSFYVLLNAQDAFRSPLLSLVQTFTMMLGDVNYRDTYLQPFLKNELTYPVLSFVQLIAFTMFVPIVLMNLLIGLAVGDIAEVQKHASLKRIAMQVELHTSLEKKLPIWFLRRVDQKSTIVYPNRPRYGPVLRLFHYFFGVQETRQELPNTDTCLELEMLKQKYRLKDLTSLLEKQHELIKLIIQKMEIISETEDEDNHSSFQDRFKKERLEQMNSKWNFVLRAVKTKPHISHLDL
# UniProt Q8BLA8, whole entry: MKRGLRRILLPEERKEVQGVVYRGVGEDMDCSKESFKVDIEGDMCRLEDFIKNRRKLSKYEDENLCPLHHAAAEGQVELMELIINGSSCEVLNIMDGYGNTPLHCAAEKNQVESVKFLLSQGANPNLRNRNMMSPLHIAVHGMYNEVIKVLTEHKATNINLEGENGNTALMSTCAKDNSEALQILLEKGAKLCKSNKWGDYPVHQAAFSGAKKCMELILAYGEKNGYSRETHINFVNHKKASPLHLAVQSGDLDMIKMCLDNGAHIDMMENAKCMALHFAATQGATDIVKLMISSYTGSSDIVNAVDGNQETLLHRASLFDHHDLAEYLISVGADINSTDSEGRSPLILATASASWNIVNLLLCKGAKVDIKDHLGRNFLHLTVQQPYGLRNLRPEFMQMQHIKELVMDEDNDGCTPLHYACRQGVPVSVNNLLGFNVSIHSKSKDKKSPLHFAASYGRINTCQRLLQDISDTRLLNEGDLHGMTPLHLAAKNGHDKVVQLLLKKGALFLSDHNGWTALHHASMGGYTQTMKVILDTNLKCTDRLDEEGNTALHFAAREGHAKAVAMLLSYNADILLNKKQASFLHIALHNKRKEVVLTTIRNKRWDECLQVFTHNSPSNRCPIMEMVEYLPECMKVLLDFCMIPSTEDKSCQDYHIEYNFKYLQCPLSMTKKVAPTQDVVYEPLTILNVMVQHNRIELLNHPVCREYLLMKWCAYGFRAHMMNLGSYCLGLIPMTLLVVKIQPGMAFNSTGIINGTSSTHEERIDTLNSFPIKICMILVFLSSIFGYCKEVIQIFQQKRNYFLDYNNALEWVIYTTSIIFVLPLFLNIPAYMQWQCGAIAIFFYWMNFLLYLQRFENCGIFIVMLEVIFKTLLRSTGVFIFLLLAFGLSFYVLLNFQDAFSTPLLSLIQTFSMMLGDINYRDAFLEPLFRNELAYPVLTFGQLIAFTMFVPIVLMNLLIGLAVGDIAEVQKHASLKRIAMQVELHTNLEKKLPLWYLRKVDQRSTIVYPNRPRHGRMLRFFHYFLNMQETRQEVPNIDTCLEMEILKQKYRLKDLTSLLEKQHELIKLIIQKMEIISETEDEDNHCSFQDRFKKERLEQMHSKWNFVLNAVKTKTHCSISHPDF
# UniProt Q12809, whole entry: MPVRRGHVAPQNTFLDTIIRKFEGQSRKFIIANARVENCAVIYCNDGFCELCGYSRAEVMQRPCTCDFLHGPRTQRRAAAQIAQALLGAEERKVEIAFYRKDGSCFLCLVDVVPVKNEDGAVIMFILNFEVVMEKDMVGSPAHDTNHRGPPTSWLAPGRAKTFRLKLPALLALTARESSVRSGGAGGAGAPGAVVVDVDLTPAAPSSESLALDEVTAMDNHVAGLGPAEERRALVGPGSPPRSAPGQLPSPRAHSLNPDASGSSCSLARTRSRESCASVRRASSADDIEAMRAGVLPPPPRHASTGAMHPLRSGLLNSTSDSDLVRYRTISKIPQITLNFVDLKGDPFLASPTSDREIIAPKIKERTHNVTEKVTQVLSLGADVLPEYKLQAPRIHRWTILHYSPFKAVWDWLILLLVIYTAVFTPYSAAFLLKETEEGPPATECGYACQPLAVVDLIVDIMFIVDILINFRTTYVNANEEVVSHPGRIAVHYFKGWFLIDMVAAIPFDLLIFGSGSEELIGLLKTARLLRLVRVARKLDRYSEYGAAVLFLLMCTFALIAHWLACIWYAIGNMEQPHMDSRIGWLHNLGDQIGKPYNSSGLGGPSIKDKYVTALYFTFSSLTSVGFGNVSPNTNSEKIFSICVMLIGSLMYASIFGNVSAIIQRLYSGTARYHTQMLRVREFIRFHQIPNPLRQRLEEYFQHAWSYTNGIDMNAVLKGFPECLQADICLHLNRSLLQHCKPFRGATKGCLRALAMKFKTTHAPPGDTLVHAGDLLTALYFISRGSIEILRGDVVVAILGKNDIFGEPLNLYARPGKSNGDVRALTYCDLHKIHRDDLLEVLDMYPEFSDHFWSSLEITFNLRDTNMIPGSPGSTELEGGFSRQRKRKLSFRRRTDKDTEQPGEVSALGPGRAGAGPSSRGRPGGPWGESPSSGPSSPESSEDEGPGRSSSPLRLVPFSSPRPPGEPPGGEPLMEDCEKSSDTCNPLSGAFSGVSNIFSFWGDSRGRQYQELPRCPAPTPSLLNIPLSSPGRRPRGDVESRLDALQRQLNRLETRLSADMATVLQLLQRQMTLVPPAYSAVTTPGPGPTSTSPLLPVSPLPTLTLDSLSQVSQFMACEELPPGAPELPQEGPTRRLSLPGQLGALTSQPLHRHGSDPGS
# UniProt Q9HBA0, whole entry: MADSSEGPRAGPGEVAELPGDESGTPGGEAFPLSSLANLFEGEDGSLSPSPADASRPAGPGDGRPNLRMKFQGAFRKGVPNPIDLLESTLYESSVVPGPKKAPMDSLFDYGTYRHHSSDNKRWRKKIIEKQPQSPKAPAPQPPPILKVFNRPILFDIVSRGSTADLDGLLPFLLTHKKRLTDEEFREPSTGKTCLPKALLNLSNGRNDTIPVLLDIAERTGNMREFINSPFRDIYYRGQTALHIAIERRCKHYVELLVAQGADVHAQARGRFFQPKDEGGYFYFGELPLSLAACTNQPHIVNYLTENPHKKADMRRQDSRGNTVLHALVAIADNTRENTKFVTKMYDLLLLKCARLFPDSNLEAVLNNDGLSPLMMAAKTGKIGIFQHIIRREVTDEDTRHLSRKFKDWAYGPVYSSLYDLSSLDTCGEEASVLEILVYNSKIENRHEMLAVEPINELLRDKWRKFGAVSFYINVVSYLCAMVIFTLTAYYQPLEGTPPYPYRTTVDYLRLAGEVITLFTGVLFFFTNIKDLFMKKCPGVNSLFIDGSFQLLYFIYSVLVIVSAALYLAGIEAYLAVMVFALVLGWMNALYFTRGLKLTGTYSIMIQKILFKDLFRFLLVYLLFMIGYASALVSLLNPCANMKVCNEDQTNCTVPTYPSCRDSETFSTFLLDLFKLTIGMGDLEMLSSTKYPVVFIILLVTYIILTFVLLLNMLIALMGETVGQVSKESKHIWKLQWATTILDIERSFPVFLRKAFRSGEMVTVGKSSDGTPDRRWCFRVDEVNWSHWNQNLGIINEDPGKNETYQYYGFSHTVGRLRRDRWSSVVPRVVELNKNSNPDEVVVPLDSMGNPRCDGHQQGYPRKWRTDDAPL
# Read-outs that look alike come from different tables or passages of the source.
# What was measured:
# TRPA1 [1] = molecular target: TRPA1 (Homo sapiens, UniProt O75762); settings: read-out: IC50, TRPA1 antagonist
# TRPA1 [2] = settings: in vivo
# rat DRG cells = settings: cultured rat DRG cells
# human TRPV1 = human TRPV1 (Homo sapiens, UniProt Q8NER1); settings: patch clamp
# NaV1.2 = NaV1.2 (Homo sapiens, UniProt Q99250); settings: patch clamp
# TRPA1 [3] = molecular target: T1, TRPA1 (Rattus norvegicus, UniProt Q6RI86); settings: rats, 300 mg/kg i.p.
# TRPA1 [4] = molecular target: T1, TRPA1; settings: CFA model, oral 100 mg/kg
# TRPA1 [5] = molecular target: TRPA1 (Cavia porcellus, UniProt H0VJD1); settings: guinea pigs
# TRPA1 [6] = molecular target: T2, TRPA1 (Mus musculus, UniProt Q8BLA8); settings: i.p. 200 mg/kg per day for 4 days during ovalbumin challenge
# TRPA1 [7] = molecular target: T1, TRPA1; settings: rat formalin model, i.p.
# TRPA1 [8] = molecular target: T1, TRPA1; settings: SNL model
# hERG = hERG (Homo sapiens, UniProt Q12809); settings: patch clamp
# TRPV4 = TRPV4 (Homo sapiens, UniProt Q9HBA0); settings: patch clamp
# TRPV3 = TRPV3 (Homo sapiens, UniProt Q8NET8); settings: patch clamp
# TRPA1 [9] = molecular target: T1, TRPA1; settings: local administration, rats
# TRPA1 [10] = test system: TRPA1
# TRPA1 [11] = molecular target: T2, TRPA1; settings: local administration, mice
smiles,measurement,setting,value
Cn1c(=O)c2c(CC(=O)Nc3nc(-c4ccc(Cl)cc4)cs3)cccc2n(C)c1=O,IC50,TRPA1 [1],< 100 nM
same,efficacy in multiple pain models,TRPA1 [2],efficacious
CC(C)c1ccc(NC(=O)Cn2cnc3c2c(=O)n(C)c(=O)n3C)cc1,increases in intracellular calcium concentration evoked by AITC (4) or formaldehyde,rat DRG cells,blocks
same,block of currents mediated by human TRPV1,human TRPV1,does not block
same,block of currents mediated by NaV1.2,NaV1.2,does not block
same,AITC (4)-induced flinching,TRPA1 [3],significantly reduced
same,reversal of mechanical hypersensitivity,TRPA1 [4],28%
same,pro-tussive effects of TRPA1 agonists,TRPA1 [5],inhibited
same,airway hyper-reactivity,TRPA1 [6],complete suppression
same,number of flinches in phase I and IIa,TRPA1 [7],dose-dependently reduces
same,reversal of mechanical hypersensitivity,TRPA1 [8]; oral 100 mg/kg,24%
same,reversal of mechanical hypersensitivity,TRPA1 [8]; oral 300 mg/kg,45%
same,block of currents mediated by hERG,hERG,does not block
same,block of currents mediated by TRPV4,TRPV4,does not block
same,block of currents mediated by TRPV3,TRPV3,does not block
CC(=Cc1ccc(Cl)cc1)C(C)=NO,CFA-induced cold allodynia,TRPA1 [9],reverses
same,effect in TRPA1 knockout mice,TRPA1 [10],without effect
same,selectivity for modulation of TRPA1 with respect to TRPV1 to TRPV4 and TRPM8,TRPV1 to TRPV4 and TRPM8,selective
same,development of CFA-induced mechanical hyperalgesia,TRPA1 [11],significantly reduces
same,nociceptive behaviour caused by CFA (3) injection,TRPA1 [11],significantly reduces
